Literature values in patent publication US20190133903A1, “Oral Compositions Containing Zinc, Stannous and Fluoride Ion Sources” (Colgate-Palmolive Company, priority 2014, published 2019).
Read-outs that look alike come from different tables or passages of the source.

**Q.** With Stannous Fluoride as the substance, how does the Solubility (0° C.) read?
**A.** 31 g/100mL

**Q.** And the Solubility (20° C.)?
**A.** 35 g/100 mL
